This assay concerns the target caspase-3 (NCBI accession no: NP-004337.2), human, purchased from R&D Systems (human) (UniProt P42574). Put plainly: cell-based or functional assay.

For “ApoHsp (cage protein formed by the fusion protein of Hsp, DEVD motif and histidine polymer, labelled with Cy5.5 and BHQ3) (from UniProt Q57733 1-147)”, the fluorescence signal on reaction with caspase-3, relative to the single peptide probe was in the range of 20 to 50 times.
